Laboratory results reported in article PMC5013544 (Blood cells, molecules & diseases, 2015).

Target: T1, human cdb3-eGFP fusion protein containing human cdb3 residues 1–379 (human, UniProt P02730 1-379)
T1 sequence (looked up): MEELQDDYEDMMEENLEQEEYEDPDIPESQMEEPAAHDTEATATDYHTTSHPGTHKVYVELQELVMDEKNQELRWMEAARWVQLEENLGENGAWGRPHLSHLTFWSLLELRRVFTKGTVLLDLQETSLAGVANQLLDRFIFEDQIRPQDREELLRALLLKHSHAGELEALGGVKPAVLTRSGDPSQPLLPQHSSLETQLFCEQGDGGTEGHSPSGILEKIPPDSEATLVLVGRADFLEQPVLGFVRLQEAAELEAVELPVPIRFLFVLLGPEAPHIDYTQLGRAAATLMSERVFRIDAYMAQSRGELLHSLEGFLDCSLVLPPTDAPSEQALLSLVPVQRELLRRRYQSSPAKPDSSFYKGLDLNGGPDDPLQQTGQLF
Assay: FRET or BRET

Kd: 180 nM
B1: human erythrocyte hemoglobin (complex)
chain 1: not shown
chain 2: not shown
